Measurements from patent US20170247447A1 (Hoffmann-La Roche, published 2017).
Where two headings read alike, the source gives them in different places.

Experiments:
Assay in all cases: cell-based or functional assay
human IL-1beta [1] = target: T1, human IL-1beta (human, UniProt P01584 117-269)
human IL-1beta [2] = target: T1, human IL-1beta; remark: listed apart in the source
human IL-1beta [3] = target: T1, human IL-1beta; remark: listed apart in the source
human IL-1beta [4] = target: T1, human IL-1beta; remark: listed apart in the source

B1: Gevokizumab (antibody, V domains shown)
VH: QVQLQESGPGLVKPSQTLSLTCSFSGFSLSTSGMGVGWIRQPSGKGLEWLAHIWWDGDESYNPSLKSRLTISKDTSKNQVSLKITSVTAADTAVYFCARNRYDPPWFVDWGQGTLVTVSS
VL: DIQMTQSTSSLSASVGDRVTITCRASQDISNYLSWYQQKPGKAVKLLIYYTSKLHSGVPSRFSGSGSGTDYTLTISSLQQEDFATYFCLQGKMLPWTFGQGTKLEIK
EC50, reduction of IL-6 expression, A549 cells (human IL-1beta [1]): 0.062 µg/mL | EC50, reduction of IL-6 expression, A549 cells (human IL-1beta [2]): 0.11 nM | IC50, inhibition of ICAM-1 expression, A549 cells (human IL-1beta [3]): 0.94 nM | IC50, inhibition of ICAM-1 expression, A549 cells (human IL-1beta [4]): 0.204 µg/mL
